# Experimental data published in PMC10008561, “Molecular mechanism of biased signaling at the kappa opioid receptor” (Nature Communications, 2023).
# System: KOR
# Assay: Bias factor, cAMP inhibition vs Tango arrestin, U50,488 as reference
# Type: cell-based, human
# Conditions: U50,488 reference = 1
structure (smiles),measurement,value
CN(C(=O)Cc1ccc(Cl)c(Cl)c1)C1CCCCC1N1CCCC1 (stereo not shown),bias factor toward G protein (95% confidence interval),1
